This note sets out measurements from ChEMBL document CHEMBL4270654, “Identification of DK419, a potent inhibitor of Wnt/β-catenin signaling and colorectal cancer growth” (Bioorg Med Chem, 2018).

One series has as its system Mus musculus. Put plainly: Apparent clearance in NOD/SCID mouse at 200 mg/kg, po by LC-MS/MS-based non-compartmental extravascular input analysis. Type of series: ADME, organism-based. To be noted: in vivo.
The next series in a line: in vivo. The conditions noted are these: NOD/SCID, mouse, po, 200 mg/kg.

As for `O=C(Nc1ccc([N+](=O)[O-])cc1Cl)c1cc(Cl)ccc1O` [NICLOSAMIDE], the CL/F in the series with Mus musculus is 0.2 L/kg. Besides, the half-life in “in vivo” is 3.1 h.
